These are literature values, as cited in patent US7452546B2, “Particles containing agricultural active ingredients” (priority 1997, dated 2008).

The subject of the data set is plants. As to conditions: The Pesticide Manual, Eleventh Edition, 1997; cited from earlier work.

With `CC(C)(C)C(=O)C(Oc1ccc(Cl)cc1)n1cncn1` (stereo not shown) [triadimefon], the phytotoxicity to plants result is listed as “can be phytotoxic to ornamental plants”.
